# Cyclic peptide permeability, from CycPeptMPDB

Collected by the curators of CycPeptMPDB (Li et al. 2023) from Townsend et al. 2020, doi:10.26434/chemrxiv.13335941.v1.

PAMPA is the parallel artificial membrane permeability assay, which has no cells and reads passive diffusion. Permeability is given as log10 of P in cm/s; higher (less negative) is more permeable.

PAMPA (log10 cm/s)	compound
-5.69	CCCN1CC(=O)N(C)[C@H](CC(C)C)C(=O)N[C@@H](CC(C)C)C(=O)N2CCC[C@H]2C(=O)N(Cc2ccccc2)CC(=O)N[C@@H](Cc2ccccc2)C1=O
-5.73	O=C1CN(Cc2ccccc2)C(=O)C[C@H](Cc2ccccc2)NC(=O)[C@H](Cc2ccccc2)NC(=O)CN(Cc2ccccc2)C(=O)[C@H]2CCCN2C(=O)C[C@H](Cc2ccccc2)N1
-4.95	CCCN1CC(=O)N(C)[C@@H](CC(C)C)C(=O)N[C@@H](CC(C)C)C(=O)N2CCC[C@H]2C(=O)N(Cc2ccccc2)CC(=O)N[C@@H](Cc2ccccc2)C1=O
-5.47	CC(C)C[C@@H]1C(=O)N[C@@H](Cc2ccccc2)C(=O)N2CCC[C@@H]2C(=O)N(C)[C@H](C)C(=O)N(Cc2ccccc2)CC(=O)N(Cc2ccccc2)CC(=O)N2CCC[C@H]2C(=O)N1C
-5.57	CC(C)C[C@H]1C(=O)N(Cc2ccccc2)CC(=O)N2CCC[C@@H]2C(=O)N(Cc2ccccc2)CC(=O)N[C@@H](Cc2ccccc2)C(=O)N[C@H](C)C(=O)N1C
-5.54	CC(C)C[C@H]1NC(=O)[C@@H](C)NC(=O)[C@H](Cc2ccccc2)NC(=O)CN(Cc2ccccc2)C(=O)[C@H]2CCCN2C(=O)C[C@H](Cc2ccccc2)NC1=O
-5.57	CC(C)C[C@H]1NC(=O)C[C@H](Cc2ccccc2)NC(=O)[C@H](Cc2ccccc2)NC(=O)[C@H](CC(C)C)N(C)C(=O)[C@@H]2CCCN2C(=O)CN(Cc2ccccc2)C1=O
-6.13	CC(C)C[C@@H]1NC(=O)CN(Cc2ccccc2)C(=O)[C@H](C)NC(=O)[C@@H]2CCCN2C(=O)[C@H](Cc2ccccc2)NC(=O)[C@@H](CC(C)C)N(C)C(=O)[C@H]2CCCN2C1=O
-5.25	CC(C)C[C@@H]1NC(=O)[C@@H](CC(C)C)N(C)C(=O)C[C@H](Cc2ccccc2)NC(=O)[C@H]2CCCN2C(=O)[C@H](Cc2ccccc2)NC(=O)CN(Cc2ccccc2)C(=O)[C@@H]2CCCN2C1=O
-5.13	CCCN1CC(=O)N(C)[C@@H](CC(C)C)C(=O)N(Cc2ccccc2)CC(=O)N2CCC[C@@H]2C(=O)N[C@H](CC(C)C)C(=O)N[C@@H](Cc2ccccc2)C1=O
-5.64	CCCN1CC(=O)N(Cc2ccccc2)CC(=O)N[C@@H](Cc2ccccc2)CC(=O)N2CCC[C@H]2C(=O)N(C)[C@@H](CC(C)C)C(=O)N[C@@H](Cc2ccccc2)C(=O)N2CCC[C@H]2C1=O
-5.59	CCCN1CC(=O)N(C)[C@H](CC(C)C)C(=O)N(Cc2ccccc2)CC(=O)N2CCC[C@H]2C(=O)N(Cc2ccccc2)CC(=O)N[C@@H](Cc2ccccc2)C1=O
-6.97	CC(C)C[C@H]1NC(=O)[C@@H]2CCCN2C(=O)C[C@H](Cc2ccccc2)NC(=O)CN(Cc2ccccc2)C(=O)[C@H](C)NC(=O)[C@H]2CCCN2C(=O)[C@H](Cc2ccccc2)NC1=O
-5.92	CCCN1CC(=O)N(Cc2ccccc2)CC(=O)N(Cc2ccccc2)CC(=O)N2CCC[C@@H]2C(=O)N(Cc2ccccc2)CC(=O)N[C@@H](Cc2ccccc2)C1=O
-6.24	CC(C)C[C@H]1NC(=O)[C@H]2CCCN2C(=O)C[C@H](Cc2ccccc2)NC(=O)CN(Cc2ccccc2)C(=O)[C@H](C)N(C)C(=O)[C@H]2CCCN2C(=O)[C@H](Cc2ccccc2)NC1=O
-5.79	CC(C)C[C@H]1NC(=O)C[C@H](Cc2ccccc2)NC(=O)[C@H](Cc2ccccc2)NC(=O)CN(Cc2ccccc2)C(=O)[C@H]2CCCN2C(=O)CN(Cc2ccccc2)C1=O
-5.69	CC(C)C[C@@H]1NC(=O)[C@@H]2CCCN2C(=O)CN(Cc2ccccc2)C(=O)[C@H](CC(C)C)N(C)C(=O)C[C@H](Cc2ccccc2)NC(=O)[C@H](Cc2ccccc2)NC1=O
-5.81	CC(C)C[C@H]1C(=O)N(Cc2ccccc2)CC(=O)N2CCC[C@H]2C(=O)N(Cc2ccccc2)CC(=O)N[C@@H](Cc2ccccc2)C(=O)N2CCC[C@@H]2C(=O)N[C@@H](Cc2ccccc2)CC(=O)N1C
-6.76	CC(C)C[C@@H]1NC(=O)[C@H]2CCCN2C(=O)CN(Cc2ccccc2)C(=O)CN(Cc2ccccc2)C(=O)[C@H](C)NC(=O)[C@H]2CCCN2C(=O)[C@H](Cc2ccccc2)NC1=O
-5.86	O=C1CN(Cc2ccccc2)C(=O)[C@H]2CCCN2C(=O)CN(Cc2ccccc2)C(=O)CN(Cc2ccccc2)C(=O)C[C@H](Cc2ccccc2)NC(=O)[C@H](Cc2ccccc2)N1
-6.45	CC(C)C[C@@H]1NC(=O)[C@H]2CCCN2C(=O)[C@@H](CC(C)C)N(C)C(=O)CN(Cc2ccccc2)C(=O)C[C@H](Cc2ccccc2)NC(=O)[C@H]2CCCN2C(=O)[C@H](Cc2ccccc2)NC1=O

Repeated from above, the 2 entries with the highest PAMPA:

compound	PAMPA (log10 cm/s)
CCCN1CC(=O)N(C)[C@@H](CC(C)C)C(=O)N[C@@H](CC(C)C)C(=O)N2CCC[C@H]2C(=O)N(Cc2ccccc2)CC(=O)N[C@@H](Cc2ccccc2)C1=O	-4.95
CCCN1CC(=O)N(C)[C@@H](CC(C)C)C(=O)N(Cc2ccccc2)CC(=O)N2CCC[C@@H]2C(=O)N[C@H](CC(C)C)C(=O)N[C@@H](Cc2ccccc2)C1=O	-5.13

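Lipid, pH, incubation time, direction and concentration are not recorded in the data file. The list need not hold all peptides of the study. Peptides that the database sets to -10, its floor, are left out.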